This note sets out measurements from patent US20200330603A1, “PEPTIDES FOR RENAL THERAPY” (FRED HUTCHINSON CANCER RESEARCH CENTER, priority 2015, published 2020).

In one data set the test system is pepsin. Put plainly: Peptide stability in the presence of pepsin, RP-HPLC. Type of data set: in vitro ADME. To be noted: 20 μg pepsin, pH 1.05, 30 minutes at 37.5° C. The protocol:
(§1) This example describes peptide stability in the presence of pepsin, trypsin, a reducing agent, or elevated temperature. Peptides were first suspended in 500 µl of ddH2O to a stock concentration of 2 mg/ml. […] These reactions were then quenched with 5 μg of soybean trypsin inhibitor (I) and, in some cases, 10 mM dithiothreitol (DTT). […] Temperature stability was tested by incubating peptides in non-reducing conditions at 70° C. for 1 hour. Stability was evaluated by RP-HPLC.

Data set [1] can be described thus: Temperature stability at 70° C., RP-HPLC. To be noted: non-reducing conditions, 70° C. for 1 hour. Type of data set: physicochemical. The protocol:
as §1

Data set [2] is described as follows: Peptide stability to a reducing agent (DTT), RP-HPLC. Type of data set: physicochemical. To be noted: 10 mM DTT in PBS, room temperature, 30 minutes. The protocol:
as §1

In another data set the test system is trypsin. Put plainly: Peptide stability in the presence of trypsin, RP-HPLC. Type of data set: in vitro ADME. The following applies: 5 μg trypsin, pH 7.0, 30 minutes at 37.5° C. The protocol: as §1

In the case of “GSDCVRFWGKCSQTSDCCPHLACKSKWPRNICVWDGSVG [SEQ ID NO: 14]”, the Pepsin result in the data set with pepsin is given as “Not Resistant”. Further, in data set [1], the “Temperature (70° C.)” value is recorded as “Resistant”. For the same sequence, in data set [2], the Reduction result was “Not Resistant”. For the same sequence, the Trypsin result with trypsin is reported as “Not Resistant”.
As for “GSGHACYRNCWREGNDEETCKERC [SEQ ID NO: 40]”, in data set [2], the Reduction entry is reported as “Not Resistant”. Also, in the data set on trypsin, the Trypsin entry is reported as “Partially Resistant”.
